# This is a selection; strong and weak results do not stand in their true shares. Records with an inconclusive call do not appear. Active and inactive are the calls of the source. Unless noted, the call rests on the fitted dose curve; in most records, active means well fitted curve in the direction sought with a large enough effect; inconclusive means small, poorly fitted or top-dose-only effect, or another doubt; inactive means no such curve, though single readings can be large; an effect the other way counts as inactive or inconclusive.
# Assays:
# [1] = target: Mitogen-activated protein kinase 10 (Mus musculus) (UniProt Q61831); assay: JNK3 AlphaScreen Assay (AID 530; active means well fitted curve in either direction with a large enough effect, not every such curve was filed as active;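 further: kinase came from lysate of stimulated human HepG2 cells; signal reports phosphorylation of biotinylated GST-cJun 1-79 at Ser73 with 10 µM ATP; on the % scale 0 is the no-effect control and ±100 the full control effect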); details: JNK3 lysate, c-Jun phosphorylation; at 57.1 µM (top of the series)
# In short: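 Activity was read by AlphaScreen after JNK3-containing HepG2 lysate (cytokine pre-activated) phosphorylated biotinylated GST-cJun with 10 uM ATP at room temperature. Phospho-Ser73 cJun antibody with Protein-A acceptor beads provided detection.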
# [2] = Cell Viability - N2a (AID 540); details: N2a mouse neuroblastoma cell viability; at 92.2 µM (top of the series);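 further: plate controls were DMSO alone for no effect and tamoxifen control for full effect; nearly all actives have a fitted effect of over 45% in size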
# In short: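 CellTiter-Glo ATP luminescence, read 20 min after reagent at room temperature, reported viability following 40 h compound treatment at 37 °C. N2a mouse neuroblastoma cells seeded 1500/well; Hill equation gave AC50.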
# [3] = Cell Viability - NIH 3T3 (AID 541);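 further: cells exposed to compound for 40 hours; nearly all actives have a fitted effect of over 25% in size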; further: potency means the concentration at half of the fitted maximal effect;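 on activity change, negative = cytotoxicity: plate controls were DMSO alone for no effect and tamoxifen positive control for full effect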
# In short: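 Intracellular ATP (CellTiter-Glo luminescence, 20 min at room temperature) measured after 40 hr compound exposure at 37 °C of 1000 NIH 3T3 mouse fibroblasts/well in complete medium; AC50 derived by Hill-equation modelling of qHTS concentration-response curves.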
# [4] = Cell Viability - HUV-EC-C (AID 542); details: HUV-EC-C endothelial cell viability, qHTS; at 92.2 µM (top of the series);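 further: cells exposed to compound for 40 hours; on the % scale 0 is the no-effect control and ±100 the full control effect; nearly all actives have a fitted effect of over 35% in size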
# In short: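 CellTiter-Glo luminescence measured ATP loss in HUV-EC-C cells (1000/well) after 40 hr compound exposure at 37 °C, in complete culture medium. Concentration-response data were Hill-fitted to give AC50.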
# [5] = Cell Viability - H-4-II-E (AID 543);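 further: cells exposed to compound for 40 hours; nearly all actives have a fitted effect of over 35% in size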; further: potency means the concentration at half of the fitted maximal effect
# In short: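 CellTiter-Glo luminescence (intracellular ATP) measured after 40 h compound exposure at 37 °C in H-4-II-E rat hepatoma cells seeded at 1500/well. Values are AC50s fitted with the standard Hill equation.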
# [6] = Cell Viability - SH-SY5Y (AID 544);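 further: cells exposed to compound for 40 hours; nearly all actives have a fitted effect of over 55% in size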; further: potency means the concentration at half of the fitted maximal effect
# In short: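 Cytotoxicity measured via ATP-dependent luciferase luminescence (CellTiter-Glo) following 40 h, 37 °C exposure of 1500 SH-SY5Y cells per well. Concentration-response data were fitted with the standard Hill equation to give AC50.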
# [7] = Cell Viability - Renal Proximal Tubule (AID 545); details: renal proximal tubule cells viability, primary cells of rat origin; at 91.7 µM (top of the series);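 further: cells exposed to compound for 40 hours; nearly all actives have a fitted effect of over 40% in size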
# In short: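 Viability taken as intracellular ATP (CellTiter-Glo luminescence) after 40 hr, 37 °C compound treatment of primary proximal tubule cells from rat kidney, 1000 cells/well; Hill-equation fits of qHTS concentration-response data gave AC50.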
# [8] = Cell Viability - Mesenchymal (AID 546); details: mesenchymal cells viability, qHTS; at 91.7 µM (top of the series);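 further: cells exposed to compound for 40 hours before reading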
# In short: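 Human renal mesenchymal cells (glomerulus-derived), 1000 cells/well, 5 hr 37 °C pre-incubation; compound 40 hr, 37 °C; CellTiter-Glo, 20 min RT; luminescence; AC50 via Hill equation.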
# [9] = Cellular Toxicity (caspase-3) HepG2 (AID 654); details: HepG2 caspase-3 activation, luminescence, 0% = DMSO only, 100% = tamoxifen; at 92.2 µM (top of the series);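 further: cells exposed to compound for 16 hours before reading; 0% = DMSO alone and 100% = caspase signal from 100 µM tamoxifen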
# In short: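 Caspase 3/7 activation is measured as a luminescence increase (aminoluciferin substrate) after 16 h compound exposure of human hepatocarcinoma HepG2 cells. AC50 values are Hill fits, scaled between DMSO baseline and 100 uM tamoxifen stimulation.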
# [10] = Cellular Toxicity (caspase-3) Jurkat (AID 655); details: Jurkat caspase-3 activation, luminescence, DMSO = 0%, tamoxifen = 100%; at 92.2 µM (top of the series);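 further: cells exposed to compound for 16 h at 37 °C before reading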
# In short: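 Luminescent Caspase-Glo 3/7 read-out (20 min, room temperature) after 16 h compound treatment at 37 C of 5000 Jurkat cells per well. AC50 derived by Hill-equation fitting, scaled between DMSO basal and 100 uM tamoxifen stimulation.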
# [11] = Cellular Toxicity (caspase-3) HUV-EC-C (AID 656); details: HUV-EC-C cells, caspase-3 activation (apoptosis), vehicle = 0, 100 µM tamoxifen = 100%; at 92.2 µM (top of the series)
# In short: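 Luminescent Caspase-Glo 3/7 readout after 16 h, 37 °C compound exposure of HUV-EC-C endothelial cells, 1000 per well, complete medium. AC50 derived by Hill fitting, with DMSO as baseline and 100 uM tamoxifen as full activation.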
# [12] = Cellular Toxicity (caspase-3) SHSY5Y (AID 657); details: SH-SY5Y caspase-3 activation, DMSO zero, 10 µM staurosporine = 100%; at 91.7 µM (top of the series)
# In short: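 Luminescent Caspase-Glo 3/7 read-out, 1 hr room temperature, follows 16 hours of compound treatment of SH-SY5Y cells at 37 °C. Normalization: DMSO basal, 10 uM staurosporine as 100%; AC50 values from Hill-equation concentration-response fits.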
# [13] = Cellular Toxicity (caspase-3) BJ (AID 658); details: BJ fibroblasts, luminescence, normalized: DMSO 0%, staurosporine 100%; at 91.7 µM (top of the series)
# In short: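 qHTS, BJ fibroblasts, 1000 cells/well; 5 hr preincubation, 16 hr compound, 37 °C; Caspase-Glo 3/7 reagent, 1 hr RT; luminescence. DMSO = 0%, 10 uM staurosporine = 100%. Hill-equation AC50.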
# [14] = Cellular Toxicity (caspase-3) MRC-5 (AID 659); details: MRC-5 cells, luminescence, normalized: DMSO 0%, 10 µM staurosporine 100%; at 91.7 µM (top of the series)
# In short: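 MRC-5 fibroblasts, 1500/well; 16 h cpd, 37 °C; Caspase-Glo 3/7, 1 h RT; lumi read. Norm: DMSO = 0%, 10 uM staurosporine = 100%. Hill-fit AC50 from qHTS conc-response.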
# [15] = Cellular Toxicity (caspase-3) Mesangial (AID 660); details: mesangial cells, normalized: DMSO 0%, 100 µM tamoxifen 100%; at 91.7 µM (top of the series);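 further: combined caspase 3 and 7 activity read by Caspase-Glo luminescence; cells exposed to compound for 16 h before the caspase read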
# In short: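 Caspase 3/7 activation measured by Caspase-Glo 3/7 luminescence (20 min, room temperature) following 16 h exposure of mesangial cells (1000/well); AC50 from Hill-equation fit, normalized to DMSO and 100 uM tamoxifen.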
# [16] = Cellular Toxicity (caspase-3) SK-N-SH (AID 661); further: potency means the concentration at half of the fitted maximal effect
# In short: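 Caspase 3/7 activation was read by luminogenic substrate cleavage after 16 hour treatment of SK-N-SH cells. Signal was scaled between DMSO and 10 uM staurosporine, and concentration-response data were fitted with the Hill equation for AC50.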
# [17] = Cellular Toxicity (caspase-3) H-4-II-E (AID 663); details: H-4-II-E rat hepatoma, scaled: DMSO 0%, 100 µM tamoxifen 100%; at 92.2 µM (top of the series);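 further: cells exposed to compound for 16 hr before readout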
# In short: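 H-4-II-E rat hepatoma, 1500 cells/well, 5 hr settle at 37 °C; compound 16 hr, 37 °C, complete medium; Caspase-Glo 3/7, 20 min RT; luminescence. DMSO = 0%, 100 uM tamoxifen = 100%; Hill-equation AC50.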
# [18] = Cellular Toxicity (caspase-3) Hek293 (AID 664); details: HEK293 caspase-3 activation, DMSO = 0%, 100 µM tamoxifen = 100%; at 92.2 µM (top of the series);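 further: cells exposed to compound for 16 h at 37 °C before readout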
# In short: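 Concentration-response qHTS: caspase 3/7 activation measured by luminescent aminoluciferin substrate cleavage after 16 h compound exposure of Hek 293 cells. AC50 from Hill equation, with DMSO as basal and 100 uM tamoxifen as 100%.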
# [19] = Cellular Toxicity (caspase-3) N2a (AID 665); details: N2a cells, luminescence, normalized: DMSO 0%, 10 µM staurosporine 100%; at 92.2 µM (top of the series);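 further: compound exposure lasted 16 h at 37 °C before readout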
# In short: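 Caspase-3/7 activation measured as luminescence from Caspase-Glo reagent (1 h, room temperature) after 16 h compound exposure of mouse N2a cells. AC50 values from Hill-equation concentration-response, scaled between DMSO and 10 uM staurosporine.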
# [20] = Cellular Toxicity (caspase-3) NIH 3T3 (AID 666); details: NIH 3T3 caspase-3 activation, apoptosis/toxicity, 0% DMSO, 100% is 100 µM tamoxifen; at 92.2 µM (top of the series);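 further: caspase signal read after 16 h compound exposure; 0% = DMSO basal and 100% = 100 µM tamoxifen stimulation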
# In short: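 Caspase-Glo 3/7 luminescence reported caspase activation in 1000 NIH 3T3 cells/well after 16 h compound exposure at 37 C. DMSO set basal and 100 uM tamoxifen set 100% stimulation; concentration-response modeled with the Hill equation for AC50.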
SMILES,"activity change, negative = inhibition [1]","activity change, negative = cytotoxicity [2]",Potency [3],"activity change, negative = cytotoxicity [4]",Potency [5],Potency [6],"activity change, negative = cytotoxicity [7]","activity change, negative = cytotoxicity [8]",caspase-3 activation [9],caspase-3 activation [10],caspase-3 activation [11],caspase-3 activation [12],caspase-3 activation [13],caspase-3 activation [14],caspase-3 activation [15],Potency [16],caspase-3 activation [17],caspase-3 activation [18],caspase-3 activation [19],caspase-3 activation [20]
O=[N+]([O-])C(Cl)(Cl)Cl,inactive: 0.508%,inactive: 0.037%,inactive,inactive: -3.99%,inactive,inactive,inactive: -9.04%,inactive: 6.95%,inactive: 0.637%,inactive: -0.0911%,inactive: 1.18%,inactive: 0.027%,inactive: -0.461%,inactive: -0.799%,inactive: 0.711%,inactive,inactive: 0.35%,inactive: 1.25%,inactive: -2.99%,inactive: 3.25%
CN(CCCl)CCCl,inactive: 5.27%,,active: 31.6 µM,inactive: -11.3%,active: 31.6 µM,active: 7.94 µM,active: -91.7%,inactive: -9.1%,inactive: 3.19%,,inactive: -1.44%,,inactive: 21.3%,inactive: 4.53%,,active: 2.51 µM,,inactive: 1.16%,inactive: -3.66%,

# From PubChem BioAssay (NCATS)
